# Values of other authors, collected in patent US8318707B2 (priority 2006, dated 2012).
# What was measured:
# [1] = tested on: cdk-1/cyclin B; settings: De Azevedo et al. 1997; Bach et al.; cited from earlier work
# [2] = tested on: cdc2/cyclin B; settings: De Azevedo et al. 1997; Bach et al.; cited from earlier work
structure (smiles),measurement,setting,value
CC[C@@H](CO)Nc1nc(NCc2ccccc2)c2ncn(C(C)C)c2n1 [(S)-roscovitine],inhibitory activity compared with (R)-roscovitine,[1],lower than that of (R)-roscovitine
same,inhibitory activity compared with (R)-roscovitine,[2],lower than that of (R)-roscovitine
